Data taken from EP0788741B1 (priority 1996, dated 1997).

System: Zebra mussel
Test: Comparative 24-hour static exposure, LT50 of adult Zebra mussels (Example 5)
Assay type: in vivo
Details: measured concentration 2.5 mg/L, about 20°C

With Chlorine the LT50 was >24.0 h.
